# Source: PubChem BioAssay AID485 (The Scripps Research Institute Molecular Screening Center, 2006)
# The chains behind the UniProt entries cited, without tags or fusion partners.
# UniProt Q99500, whole entry: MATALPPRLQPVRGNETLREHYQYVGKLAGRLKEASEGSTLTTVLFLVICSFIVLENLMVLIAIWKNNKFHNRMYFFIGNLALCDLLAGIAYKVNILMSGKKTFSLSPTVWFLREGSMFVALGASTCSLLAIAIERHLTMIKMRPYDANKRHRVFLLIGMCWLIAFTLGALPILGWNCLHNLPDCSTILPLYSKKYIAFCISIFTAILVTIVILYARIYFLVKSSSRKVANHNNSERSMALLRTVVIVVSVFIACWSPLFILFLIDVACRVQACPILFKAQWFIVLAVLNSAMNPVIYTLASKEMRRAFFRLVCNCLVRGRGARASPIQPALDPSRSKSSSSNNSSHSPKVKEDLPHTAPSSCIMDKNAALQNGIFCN
# The entries are a selection whose mix differs from that of the whole data set. Activity calls are given as the source filed them.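 Rule for the calls: active = inhibition above the plate cutoff, the mean inhibition of test wells on that plate plus 3 SD (cut at about 28% in these data); inactive = the rest.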
# Molecular target: Sphingosine 1-phosphate receptor 3 (Homo sapiens) (UniProt Q99500)
# Assay: S1P3 receptor antagonists, primary screen, cell-based (AID 485);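 note: cells challenged with S1P at its EC80 of 0.8 µM; blue over green emission ratio from cleaved BLA substrate after 4 h stimulation; 0% = S1P-stimulated wells and 100% = unstimulated DMSO-only wells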
# Details: CHO S1P3 NFAT-BLA reporter, FRET fluorescence, antagonist mode; at 4.98 µM; stronger effect = higher value
row,Compound,inhibition
1,CCOC(=O)c1ccc(NP(C)(=O)Oc2ccc(Cl)cc2)cc1 (centres undefined),inactive: -2.07%
2,CP(=O)(Oc1ccccc1)N1CCOC1=O (centres undefined),inactive: 7.5%
3,CCc1ccc(OP(C)(=O)Nc2cccnc2)cc1 (centres undefined),inactive: -2.95%
4,COc1ccccc1OP(C)(=O)Nc1c(C)n(C)n(-c2ccccc2)c1=O (centres undefined),inactive: -3.9%
5,O=C(OCCCN1CCCC1)C(O)(c1ccccc1)C1CCCCC1 (centres undefined),inactive: 3.98%
6,COc1ccc(OP(C)(=O)Nc2ccc(Br)cc2)cc1 (centres undefined),inactive: -3.37%
7,CN(C)C(=O)c1c([N+](=O)[O-])cc([N+](=O)[O-])cc1[N+](=O)[O-],inactive: -3.53%
8,COc1ccccc1OP(C)(=O)Nc1ccccc1Br (centres undefined),inactive: 3.46%
9,COc1ccccc1OP(C)(=O)Nc1ccc(Br)cc1 (centres undefined),inactive: 2.76%
10,CP(=O)(Nc1ccccn1)Oc1ccccc1 (centres undefined),inactive: -26.1%
11,O=[N+]([O-])c1cc([N+](=O)[O-])c(Nc2ccccn2)c([N+](=O)[O-])c1,inactive: 6.06%
12,COc1ccc(OP(C)(=O)Nc2ccccc2Br)cc1 (centres undefined),inactive: -2.54%
13,COc1ccccc1OP(C)(=O)Nc1ccc(C)c(C)c1 (centres undefined),inactive: -8.9%
14,Cc1cc(C)cc(OP(C)(=O)Nc2cccc(C(F)(F)F)c2)c1 (centres undefined),inactive: 8.56%
15,CP(=O)(OCCOc1ccccc1)OCCOc1ccccc1,inactive: 6.36%
16,CP(=O)(Nc1ccc(Cl)cc1Cl)Oc1ccccc1 (centres undefined),inactive: -14.2%
17,Cc1nc2ccc3ccccc3c2o1.O=[N+]([O-])c1cc([N+](=O)[O-])c(O)c([N+](=O)[O-])c1,inactive: -13.6%
18,COc1ccc(OP(C)(=O)Nc2ccc(SC(F)(F)F)cc2)cc1 (centres undefined),inactive: -18.2%
19,CCOC(=O)c1ccc(NP(C)(=O)Oc2ccc(F)cc2)cc1 (centres undefined),inactive: -4.9%
20,CCCCCOc1ccc(NP(C)(=O)Oc2ccc(Cl)cc2Cl)cc1 (centres undefined),inactive: -7.64%
21,CC(C)c1ccc(OP(C)(=O)Nc2ccc(SC(F)(F)F)cc2)cc1 (centres undefined),inactive: 11.6%
22,CP(=O)(Nc1ccccc1F)Oc1ccccc1 (centres undefined),inactive: 9.3%

row,Compound,inhibition
1,O=C(OCCN1CCN(CCOCc2ccccc2)CC1)C(O)(c1ccccc1)c1ccccc1,inactive: 12.1%
2,O=C(OC1CN2CCC1CC2)c1ccc([N+](=O)[O-])cc1 (centres undefined),inactive: 0.4%
3,CCOP(C)(=S)SCC(=O)NC(C)(CC)C(=O)O (centres undefined),inactive: -10%
4,CP(=O)(Nc1ccc(SC(F)(F)F)cc1)Oc1ccc(F)cc1 (centres undefined),inactive: 0.93%
5,Cc1ccccc1NP(C)(=O)Nc1ccccc1C,inactive: -28.9%
6,COc1ccc(NP(C)(=O)Oc2ccccc2OC)cc1 (centres undefined),inactive: -6.91%
7,CN(C)CCOC(=O)C(O)(c1ccccc1)C1CCCCC1 (centres undefined),inactive: -6%
8,O=[N+]([O-])c1cc([N+](=O)[O-])c(NCC2CCS(=O)(=O)C2)c([N+](=O)[O-])c1 (centres undefined),inactive: 12.1%
9,Cc1cc(-c2cccc3ccccc23)c(C)cn1.O=[N+]([O-])c1cc([N+](=O)[O-])c(O)c([N+](=O)[O-])c1,inactive: -2.39%
10,O=[N+]([O-])c1ccc(OP2(=O)COCCO2)cc1 (centres undefined),inactive: 5.8%
11,O=[N+]([O-])c1cc([N+](=O)[O-])c(Nc2nnnn2CCO)c([N+](=O)[O-])c1,inactive: 3.32%
12,CCOC(=O)C(CC)C1=NC(C)(C)Cc2ccccc21.O=[N+]([O-])c1cc([N+](=O)[O-])c(O)c([N+](=O)[O-])c1 (centres undefined),inactive: -3.2%
13,CP(=O)(Nc1ccc(SC(F)(F)F)cc1)Oc1ccccc1 (centres undefined),inactive: 7.75%
14,CCCOc1ccc(NP(C)(=O)Oc2ccc(Cl)cc2)cc1 (centres undefined),inactive: -11.2%
15,CN1CCCCC1COC(=O)C1(O)c2ccccc2CCc2ccccc21 (centres undefined),inactive: 18.6%
16,O=[N+]([O-])c1cc([N+](=O)[O-])c(-n2nnc3ccccc32)c([N+](=O)[O-])c1,inactive: 8.5%
17,Cc1nc2ccc3ccccc3c2s1.O=[N+]([O-])c1cc([N+](=O)[O-])c(O)c([N+](=O)[O-])c1,inactive: -5.6%
18,CCOC(=O)c1ccc(NP(C)(=O)Oc2cc(C)cc(C)c2)cc1 (centres undefined),inactive: 3.1%
19,COc1ccccc1OP(C)(=O)Nc1cccc(Br)c1 (centres undefined),inactive: 0.55%
20,CP(=O)(Nc1cccc(Br)c1)Oc1ccccc1 (centres undefined),inactive: -5.94%
21,Cc1ccc(C)c(NP(C)(=O)Oc2ccccc2)c1 (centres undefined),inactive: -10.5%
22,O=C(O)c1cccc(Nc2c([N+](=O)[O-])cc([N+](=O)[O-])cc2[N+](=O)[O-])c1,inactive: -26.4%

row,Compound,inhibition
1,CC1=NCCc2c1[nH]c1ccccc21.O=[N+]([O-])c1cc([N+](=O)[O-])c(O)c([N+](=O)[O-])c1,inactive: -4.12%
2,CC(C)(C)c1ccc(OP(C)(=O)Nc2ccc(SC(F)(F)F)cc2)cc1 (centres undefined),inactive: -0.24%
3,Cc1cccc(C)c1OP(C)(N)=O (centres undefined),inactive: -3.01%
4,O=[N+]([O-])c1ccc2c(c1)C=Nc1ccccc1O2,inactive: -8.99%
5,COc1ccccc1OP(C)(=O)Nc1cc(Cl)ccc1C (centres undefined),inactive: -1.89%
6,Cc1cc(C)cc(OP(C)(N)=O)c1 (centres undefined),inactive: -12.9%
7,CCOC(=O)c1ccc(NP(C)(=O)Oc2ccccc2)cc1 (centres undefined),inactive: 5.01%
8,COc1ccccc1OP(C)(=O)Nc1ccc(C)cc1 (centres undefined),inactive: -30.7%
9,Cc1ccc(NP(C)(=O)Oc2ccccc2)c(C)c1 (centres undefined),inactive: 19.3%
10,CCN(CC)CCCOC(=O)C(O)(c1ccccc1)c1ccccc1,inactive: 13.8%
11,CCc1ccc(OP(C)(=O)N2CCN(c3ccc([N+](=O)[O-])cc3)CC2)cc1 (centres undefined),inactive: -0.96%
12,Cc1cc(C)cc(OP(C)(=O)Nc2ccc(SC(F)(F)F)cc2)c1 (centres undefined),inactive: -1.16%
13,Cc1cccc(C)c1OP(C)(=O)Nc1ccc(SC(F)(F)F)cc1 (centres undefined),inactive: -10.9%
14,CP(=O)(Nc1ccc(SC(F)(F)F)cc1)Oc1ccc(Cl)cc1 (centres undefined),inactive: 1.04%
15,CP(=O)(Oc1ccccc1)OC(c1ccccc1)C(F)(F)F (centres undefined),inactive: -20%
16,CCOP(C)(=S)SCC(=O)NC(C)C(=O)O (centres undefined),inactive: -8.2%
17,CCOC(=O)c1ccc(NP(C)(=O)Oc2ccc(OC)cc2)cc1 (centres undefined),inactive: 11.6%
18,COc1ccccc1OP(C)(=O)Nc1ccccc1 (centres undefined),inactive: -9.99%
19,CP(=O)(Nc1ccccc1Br)Oc1ccccc1 (centres undefined),inactive: 0.89%
20,CP(=S)(Nn1cnnc1)Oc1ccccc1 (centres undefined),inactive: 5.3%
